The assay concerns the target α1B-AR (Ovis aries, UniProt A0ACI6RKW0). Briefly: functional antagonism (KB) of phenylephrine-induced contraction in isolated arteries.

Sequences of proteins named here, by UniProt entry; tags and fusion partners are left off. Residues count along the entry.
UniProt A0ACI6RKW0, 1-515: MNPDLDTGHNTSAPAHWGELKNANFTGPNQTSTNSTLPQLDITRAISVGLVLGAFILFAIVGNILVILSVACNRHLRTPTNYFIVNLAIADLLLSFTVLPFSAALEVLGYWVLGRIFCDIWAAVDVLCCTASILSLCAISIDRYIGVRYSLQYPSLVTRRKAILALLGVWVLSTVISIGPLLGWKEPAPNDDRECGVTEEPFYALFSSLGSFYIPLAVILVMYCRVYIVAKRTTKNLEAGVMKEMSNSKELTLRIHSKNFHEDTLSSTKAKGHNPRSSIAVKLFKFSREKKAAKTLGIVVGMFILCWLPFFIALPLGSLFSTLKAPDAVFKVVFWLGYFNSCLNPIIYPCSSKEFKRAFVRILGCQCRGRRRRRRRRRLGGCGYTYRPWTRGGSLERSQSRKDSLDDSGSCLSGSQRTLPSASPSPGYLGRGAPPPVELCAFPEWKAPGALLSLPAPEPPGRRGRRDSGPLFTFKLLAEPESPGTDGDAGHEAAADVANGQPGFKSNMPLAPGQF

With `CN(CCCl)Cc1cc(Cl)c(NC2=NCCN2)c(Cl)c1`, the Kb (in general, the affinity of an antagonist, worked out from how it opposes an agonist) came to 0.53 nM.
